From PubChem BioAssay AID583 (Sanford-Burnham Center for Chemical Genomics, 2007)
The entries are a selection whose mix differs from that of the whole data set. Some of these compounds have results that are not shown, active ones among them. Activity calls are given as the source filed them. Rule as the data show it: active = displacement above about 50%; inactive = the rest.

By UniProt entry, the sequences of proteins in these tests, tags left out.
UniProt P0DMV8, whole entry: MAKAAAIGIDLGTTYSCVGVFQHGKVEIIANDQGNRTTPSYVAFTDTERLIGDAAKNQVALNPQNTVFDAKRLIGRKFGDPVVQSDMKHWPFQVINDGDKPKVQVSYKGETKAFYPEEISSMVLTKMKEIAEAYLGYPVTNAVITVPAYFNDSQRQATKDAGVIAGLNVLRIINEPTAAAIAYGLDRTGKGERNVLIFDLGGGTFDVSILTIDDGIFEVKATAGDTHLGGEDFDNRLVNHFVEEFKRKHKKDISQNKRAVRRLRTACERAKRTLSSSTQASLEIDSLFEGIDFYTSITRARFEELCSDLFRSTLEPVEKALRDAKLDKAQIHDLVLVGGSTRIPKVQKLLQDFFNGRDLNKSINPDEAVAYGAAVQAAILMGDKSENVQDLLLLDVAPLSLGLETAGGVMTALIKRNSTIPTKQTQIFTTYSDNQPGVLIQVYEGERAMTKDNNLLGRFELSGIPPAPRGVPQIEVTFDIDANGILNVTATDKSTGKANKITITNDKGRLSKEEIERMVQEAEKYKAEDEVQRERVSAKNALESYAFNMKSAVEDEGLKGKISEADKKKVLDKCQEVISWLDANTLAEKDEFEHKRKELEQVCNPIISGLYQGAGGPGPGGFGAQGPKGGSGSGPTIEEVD

Target: Heat shock 70 kDa protein 1A (Homo sapiens) (UniProt P0DMV8)
Test: small molecules displacing fluorescent ligand from Hsp70 – biochemical, fluorescence polarization, primary screen (AID 583);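 also: plate controls were vehicle for no effect and reference ligand for full effect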
Conditions: Hsp70 fluorescence polarization probe displacement, mP; at 20 µM; hits give high values

SMILES | displacement
COc1ccc(OC)c(C=C(C#N)C#N)c1 | inactive: 2%
O=C(OC1CN2CCC1CC2)C(CO)(c1ccccc1)c1ccccc1 (stereo not drawn) | inactive: 0.9%
CN(C)c1cccc(C(=O)NCC2(N(C)C)CCCCC2)c1 | inactive: -5%
